The assay deals with weed combination. Put plainly: Herbicidal activity of citric acid alone, pre-emergence, covered pots. In kind it is in vivo. Here is the method: The weeds used in these tests were the same as those used in Example 4, and observations were made of the effects on individual weeds as well as the weed population as a whole.
A stock solution of citric acid was made in the manner described in Example 4, and all other test parameters were likewise the same as in Example 4. Weed counts were taken from the various pots at intervals of 7, 12, and 28 days after application of the citric acid, and data analyses were performed in the same manner as Example 1.

Results on 1 molecule are retold here after patent US20070116781A1, “Hydrogen Cyanamide Pesticide Formulations” (priority 2005, published 2007).

For the molecule `O=C(O)CC(O)(CC(=O)O)C(=O)O` [C6H8O7, 2-hydroxy-1,2,3-propanetricarboxylic acid], the “Weeds Per Pot (weed combination)” value by setting is: (12 d after treatment, citric acid 150 mg/kg soil) 22.0; (12 d after treatment, citric acid 250 mg/kg soil) 22.0; (28 d after treatment, citric acid 100 mg/kg soil) 23.5; (28 d after treatment, citric acid 150 mg/kg soil) 23.0; (28 d after treatment, citric acid 250 mg/kg soil) 22.0.
